Source: patent publication US10329278B2, “Pharmaceutical compounds” (Heptares Therapeutics Limited, priority 2017, dated 2019)

Amino acid sequences for entries named in this document (tags omitted).
UniProt P08173, whole entry: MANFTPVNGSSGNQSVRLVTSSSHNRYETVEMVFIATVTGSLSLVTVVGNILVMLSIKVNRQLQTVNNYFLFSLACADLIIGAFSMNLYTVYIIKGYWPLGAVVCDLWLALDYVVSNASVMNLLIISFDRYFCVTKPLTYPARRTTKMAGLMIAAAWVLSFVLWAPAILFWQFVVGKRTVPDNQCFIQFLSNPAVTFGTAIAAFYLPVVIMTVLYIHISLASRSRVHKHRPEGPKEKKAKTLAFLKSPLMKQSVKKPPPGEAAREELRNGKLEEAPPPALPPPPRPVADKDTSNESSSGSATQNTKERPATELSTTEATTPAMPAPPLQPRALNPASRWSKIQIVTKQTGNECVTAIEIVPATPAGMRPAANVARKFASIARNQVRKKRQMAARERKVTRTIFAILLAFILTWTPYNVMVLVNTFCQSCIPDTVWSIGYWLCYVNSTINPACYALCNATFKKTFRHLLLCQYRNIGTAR
UniProt P11229, whole entry: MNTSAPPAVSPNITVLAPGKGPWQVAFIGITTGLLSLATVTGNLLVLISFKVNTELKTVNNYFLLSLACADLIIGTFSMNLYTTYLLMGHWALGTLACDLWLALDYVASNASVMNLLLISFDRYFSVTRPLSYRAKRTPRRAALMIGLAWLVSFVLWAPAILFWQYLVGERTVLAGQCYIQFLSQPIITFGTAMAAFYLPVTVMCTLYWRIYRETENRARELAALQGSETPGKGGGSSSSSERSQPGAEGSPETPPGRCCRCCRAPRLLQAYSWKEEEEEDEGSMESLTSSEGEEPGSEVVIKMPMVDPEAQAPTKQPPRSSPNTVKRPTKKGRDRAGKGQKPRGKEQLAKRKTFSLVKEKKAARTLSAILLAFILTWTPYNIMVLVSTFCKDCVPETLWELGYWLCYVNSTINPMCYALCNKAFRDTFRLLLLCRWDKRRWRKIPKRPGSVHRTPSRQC
UniProt P08172, whole entry: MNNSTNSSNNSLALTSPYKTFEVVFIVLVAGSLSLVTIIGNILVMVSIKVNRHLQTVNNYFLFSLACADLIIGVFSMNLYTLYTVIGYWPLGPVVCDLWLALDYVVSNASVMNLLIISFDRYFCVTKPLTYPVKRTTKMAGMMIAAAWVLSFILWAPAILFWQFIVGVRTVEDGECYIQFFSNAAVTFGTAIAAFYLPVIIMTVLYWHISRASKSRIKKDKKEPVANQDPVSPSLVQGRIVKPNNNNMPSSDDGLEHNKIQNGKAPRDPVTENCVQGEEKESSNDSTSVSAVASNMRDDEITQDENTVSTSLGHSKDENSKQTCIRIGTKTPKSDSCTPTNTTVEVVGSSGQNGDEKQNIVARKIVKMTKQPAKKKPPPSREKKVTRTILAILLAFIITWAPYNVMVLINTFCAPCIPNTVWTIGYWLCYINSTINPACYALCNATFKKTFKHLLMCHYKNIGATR
UniProt P20309, whole entry: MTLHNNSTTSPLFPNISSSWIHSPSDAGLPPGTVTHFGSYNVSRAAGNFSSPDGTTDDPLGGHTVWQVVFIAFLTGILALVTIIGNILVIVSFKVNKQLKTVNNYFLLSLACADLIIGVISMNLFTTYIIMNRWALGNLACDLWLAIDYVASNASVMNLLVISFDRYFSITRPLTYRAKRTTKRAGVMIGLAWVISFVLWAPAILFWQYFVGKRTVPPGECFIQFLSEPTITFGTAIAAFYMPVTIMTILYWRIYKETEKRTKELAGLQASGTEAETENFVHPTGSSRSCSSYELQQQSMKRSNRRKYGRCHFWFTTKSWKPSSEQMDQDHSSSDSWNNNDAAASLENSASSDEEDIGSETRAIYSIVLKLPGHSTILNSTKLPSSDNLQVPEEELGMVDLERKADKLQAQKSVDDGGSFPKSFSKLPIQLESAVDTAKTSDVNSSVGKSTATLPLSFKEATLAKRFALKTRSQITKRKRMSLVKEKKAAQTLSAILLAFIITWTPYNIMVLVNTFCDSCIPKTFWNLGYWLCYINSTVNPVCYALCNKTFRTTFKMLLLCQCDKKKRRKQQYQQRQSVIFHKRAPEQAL

What was measured:
[1] = target: human muscarinic M4 receptor (Homo sapiens, UniProt P08173); assay: Alphascreen Surefire phospho-ERK1/2 functional assay, M4; assay type: cell-based; conditions: CHO cells stably expressing human M4; for pEC50 M4: agonist 5 min, 37° C.; for % Emax cf. ACh (M4): relative to ACh
[2] = target: human muscarinic M1 receptor (Homo sapiens, UniProt P11229); assay: Alphascreen Surefire phospho-ERK1/2 functional assay, M1; conditions: CHO cells stably expressing human M1; for pEC50 M1: agonist 5 min, 37° C.; for % Emax cf. ACh (M1): relative to ACh
[3] = target: human muscarinic M2 receptor (Homo sapiens, UniProt P08172); assay: Alphascreen Surefire phospho-ERK1/2 functional assay, M2; assay type: cell-based; conditions: CHO cells stably expressing human M2; relative to ACh
[4] = target: human muscarinic M3 receptor (Homo sapiens, UniProt P20309); assay: Alphascreen Surefire phospho-ERK1/2 functional assay, M3; assay type: cell-based; conditions: CHO cells stably expressing human M3; for pEC50 M3: agonist 5 min, 37° C.; for % Emax cf. ACh (M3): relative to ACh

pEC50 M4 [1] | % Emax cf. ACh (M4) [1] [%] | pEC50 M1 [2] | % Emax cf. ACh (M1) [2] [%] | % Emax cf. ACh (M2) [3] [%] | pEC50 M3 [4] | % Emax cf. ACh (M3) [4] [%] | Structure (SMILES)
6.81 | 94 | 7.27 | 112 | 18 | 4.70 | 1 | CCOC(=O)N1CCC2(CC(N3C[C@@H]4[C@H](C3)[C@H]4C(=O)NC3(C)CCC3)C2)C1 (single isomer, unassigned) [2-4 Isomer 2]
7.13 | 52 | 7.87 | 117 | 7 | 4.70 | 21 | CCOC(=O)N1CC2CCC1CC2N1C[C@@H]2[C@H](C1)[C@H]2C(=O)N(CC)OC (single isomer, unassigned) [8-10 Isomer 1]
7.79 | 79 | 8.32 | 92 | 20 | 4.70 | 21 | CCOC(=O)N1CC2(CCC(N3C[C@@H]4[C@H](C3)[C@H]4C(=O)N(CC)CC)C2)C1 (some centres unmarked)
 |  |  |  | 9 | 4.70 | 20 | CCOC(=O)N1CCC2(CC(N3C[C@@H]4[C@H](C3)[C@H]4C(=O)N(C)CC)C2)C1 (single isomer, unassigned)
4.70 | 12 | 7.05 | 39 | 2 | 4.70 | 5 | CCOC(=O)N1C[C@H]2CC[C@@H]1CC2N1C[C@@H]2[C@H](C1)[C@H]2C(=O)N(CC)CC (single isomer, unassigned) [8-5 Isomer 2]
7.16 | 93 | 7.72 | 111 | 62 | 4.85 | 100 | CCOC(=O)N1CCC2(CC(N3C[C@@H]4[C@H](C3)[C@H]4C(=O)N3CCCC[C@H]3C)C2)C1 (single isomer, unassigned) [2-14 Isomer 2]
5.58 | 95 | 7.00 | 134 | 10 |  |  | CCOC(=O)N1CC2CC(C1)C2N1C[C@@H]2[C@H](C1)[C@H]2C(=O)N(CC)CC (single isomer, unassigned)
7.17 | 85 | 7.69 | 100 | 20 | 4.70 | 55 | CCOC(=O)N1CCC2(CC(N3C[C@@H]4[C@H](C3)[C@H]4C(=O)N(CC)C3CC3)C2)C1 (some centres unmarked)
6.77 | 100 | 7.39 | 108 | 14 | 4.70 | 15 | CCOC(=O)N1CCC2(CC(N3C[C@@H]4[C@H](C3)[C@H]4C(=O)NCC3CCC3)C2)C1 (single isomer, unassigned) [2-3 Isomer 1]
6.02 | 65 | 6.93 | 113 | 5 | 4.70 | 3 | CCOC(=O)N1CC2CC(N3C[C@@H]4[C@H](C3)[C@H]4C(=O)N(CC)CC)CC1C2 (single isomer, unassigned) [11-2 Isomer 2]
6.56 | 63 | 7.10 | 101 | 8 | 4.70 | 2 | CCOC(=O)N1CCC2(CC(N3C[C@@H]4[C@H](C3)[C@H]4C(=O)NCC(C)C)C2)C1 (single isomer, unassigned) [2-2 Isomer 2]
6.32 | 72 | 6.94 | 83 | 51 | 4.70 | 38 | CCOC(=O)N1CCC2(CC(N3C[C@@H]4[C@H](C3)[C@H]4C(=O)N3CCCCC3)C2)C1 (single isomer, unassigned) [2-13 Isomer 2]
7.42 | 75 | 7.79 | 94 | 87 | 4.70 | 59 | CCOC(=O)N1CCC2(CC(N3C[C@@H]4[C@H](C3)[C@H]4C(=O)N3CCCCCC3)C2)C1 (single isomer, unassigned) [2-16 Isomer 2]
7.89 | 62 | 4.70 | 21 | 4 | 4.70 | 2 | CCOC(=O)[C@H]1[C@@H]2CN(C3CCC4(C3)CN(C(=O)OCC)C4)C[C@@H]21 (some centres unmarked)
7.57 | 88 | 6.85 | 86 | 34 | 4.70 | 7 | CCOC(=O)N1CCC2(CC(N3C[C@@H]4[C@H](C3)[C@H]4c3csc(C)n3)C2)C1 (single isomer, unassigned) [2-30 Isomer 2]
7.00 | 92 | 7.52 | 110 | 15 | 4.70 | 17 | CCOC(=O)N1CCC2(CC(N3C[C@@H]4[C@H](C3)[C@H]4C(=O)N(C)C(C)C)C2)C1 (single isomer, unassigned) [2-8 Isomer 2]
5.72 | 47 | 6.89 | 106 | 6 | 4.70 | 6 | CCOC(=O)N1C[C@H]2CC[C@@H]1CC2N1C[C@@H]2[C@H](C1)[C@H]2C(=O)N(CC)CC (single isomer, unassigned) [8-5 Isomer 1]
6.55 | 63 | 7.19 | 96 | 7 | 4.70 | 20 | CCOC(=O)N1CCC2(CC(N3C[C@@H]4[C@H](C3)[C@H]4C(=O)N3CCCOCC3)C2)C1 (single isomer, unassigned) [2-17 Isomer 2]
4.70 | 11 | 7.29 | 30 | 53 | 4.70 | 45 | CCOC(=O)N1CCC2(CC(N3C[C@@H]4[C@H](C3)[C@H]4C(=O)N3CCCCCC3)C2)C1 (single isomer, unassigned) [2-16 Isomer 1]
7.30 | 102 | 7.47 | 115 | 11 | 4.73 | 47 | CCOC(=O)N1CCC2(CC(N3C[C@@H]4[C@H](C3)[C@H]4C(=O)N(CC)OC)C2)C1 (single isomer, unassigned) [2-24 Isomer 2]
